The values that follow are results of earlier work, collected in PMC2989597 (Current topics in medicinal chemistry, 2009).

The test system of this series is TSHR. The settings on record: read-out: EC50 concentration; cAMP accumulation, HEK-EM 293 cells stably expressing TSHR; cited from earlier work. A general note: cAMP levels reflect the balance of adenylyl cyclase and phosphodiesterase activity.

As to TSH: thyroid stimulating hormone, the EC50 is 1.8 nM.
